In patent US20260042831A1 (XENTRIA, published 2026):
Each block holds one binder with its values, some of them ahead of it.

Chains of the proteins cited; added tags and fusions are not shown. Residues count along the entry.
UniProt P01375, 77-233 limits assumed: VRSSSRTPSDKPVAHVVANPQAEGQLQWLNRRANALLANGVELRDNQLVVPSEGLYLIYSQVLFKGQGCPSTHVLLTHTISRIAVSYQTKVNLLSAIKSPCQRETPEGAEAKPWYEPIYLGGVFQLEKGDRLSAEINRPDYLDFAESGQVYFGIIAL
UniProt P01375, whole entry: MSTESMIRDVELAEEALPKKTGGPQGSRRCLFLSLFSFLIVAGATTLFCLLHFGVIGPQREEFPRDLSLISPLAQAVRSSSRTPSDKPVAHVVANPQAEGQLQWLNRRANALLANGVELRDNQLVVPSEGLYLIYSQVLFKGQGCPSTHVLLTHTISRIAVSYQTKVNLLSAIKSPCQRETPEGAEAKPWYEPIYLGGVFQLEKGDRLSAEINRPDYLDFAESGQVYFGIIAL

Columns and labels:
[1] = target: T1, human TNFα (human, UniProt P01375 77-233); experiment: indirect sandwich ELISA; indirect sandwich ELISA
[2] = target: T2, transmembrane TNFα (mTNFα) expressed on T3-33 cells (UniProt P01375 1-233); experiment: Cell-based ELISA on T3-33 cells expressing mTNFα. Bound antibody detected with HRP mouse anti-human IgG1 and TMB, OD 450 nm. The value is parameter C (midpoint) of the printed 4-P fit, with A 0.0769, B 1.26, D 0.416. The unit comes from the x axis 'Remicade ng/ml'.
T2 construct: whole, on cells; The CDC assay says only 'cells expressing mTNFα'; also called T3-33 (TNFα-expressing) cells; cells expressing mTNFα

[3] = target: recombinant TNFα (soluble; species not stated) (UniProt P01375 77-233); experiment: cell-based or functional assay
[4] = target: T1, human TNFα; experiment: direct ELISA; direct ELISA

EC50 [1]: 0.0607 µg/mL
EC50 [2]: 0.0485 µg/mL
EC50 [4]: 0.578 µg/mL
B1: XTMAB-16 (antibody, human IgG1, kappa)
heavy: not shown
light: DILLTQSPAILSVSPGERVSFSCRASQFVGSSIHWYQQRTNGSPRLLIKYASESMSGIPSRFSGSGSGTDFTLSINTVESEDIADYYCQQSHSWPFTFGSGTNLEVKRTVAAPSVFIFPPSDEQLKSGTASVVCLLNNFYPREAKVQWKVDNALQSGNSQESVTEQDSKDSTYSLSSTLTLSKADYEKHKVYACEVTHQGLSSPVTKSFNRGEC
notes: The general description says the antibody is sialylated with N-acetylneuraminic acid (Asn 297 in embodiments) and glycosylated at Asn 300; All batches (A-H); also called XTMB-16
EC50 (parameter C, midpoint of the printed 4-P fit with A 41.3, B 1.84, D 279). Inhibition of TNFα-induced cytotoxicity in A375 cells, luminescence RLU/100. Plot #2 (Tested Sample), solid line. [3]: 14.5 ng/mL

EC50 [2]: 0.0443 µg/mL
B2: Infliximab (antibody, V domains shown)
VH: EVKLEESGGGLVQPGGSMKLSCVASGFIFSNHWMNWVRQSPEKGLEWVAEIRSKSINSATHYAESVKGRFTISRDDSKSAVYLQMTDLRTEDTGVYYCSRNYYGSTYDYWGQGTTLTVSS
VL: DILLTQSPAILSVSPGERVSFSCRASQFVGSSIHWYQQRTNGSPRLLIKYASESMSGIPSRFSGSGSGTDFTLSINTVESEDIADYYCQQSHSWPFTFGSGTNLEVKR
